Values quoted from earlier work in patent US20110306579A1, “METHODS OF NEUROPROTECTION USING NEUROPROTECTIVE STEROIDS AND A VITAMIN D” (EMORY UNIVERSITY, priority 2009, published 2011).

Sequences of proteins named here, by UniProt entry; tags and fusion partners are left off. A change or cut given only in a name is not applied to a line headed by its entry.
UniProt P06401: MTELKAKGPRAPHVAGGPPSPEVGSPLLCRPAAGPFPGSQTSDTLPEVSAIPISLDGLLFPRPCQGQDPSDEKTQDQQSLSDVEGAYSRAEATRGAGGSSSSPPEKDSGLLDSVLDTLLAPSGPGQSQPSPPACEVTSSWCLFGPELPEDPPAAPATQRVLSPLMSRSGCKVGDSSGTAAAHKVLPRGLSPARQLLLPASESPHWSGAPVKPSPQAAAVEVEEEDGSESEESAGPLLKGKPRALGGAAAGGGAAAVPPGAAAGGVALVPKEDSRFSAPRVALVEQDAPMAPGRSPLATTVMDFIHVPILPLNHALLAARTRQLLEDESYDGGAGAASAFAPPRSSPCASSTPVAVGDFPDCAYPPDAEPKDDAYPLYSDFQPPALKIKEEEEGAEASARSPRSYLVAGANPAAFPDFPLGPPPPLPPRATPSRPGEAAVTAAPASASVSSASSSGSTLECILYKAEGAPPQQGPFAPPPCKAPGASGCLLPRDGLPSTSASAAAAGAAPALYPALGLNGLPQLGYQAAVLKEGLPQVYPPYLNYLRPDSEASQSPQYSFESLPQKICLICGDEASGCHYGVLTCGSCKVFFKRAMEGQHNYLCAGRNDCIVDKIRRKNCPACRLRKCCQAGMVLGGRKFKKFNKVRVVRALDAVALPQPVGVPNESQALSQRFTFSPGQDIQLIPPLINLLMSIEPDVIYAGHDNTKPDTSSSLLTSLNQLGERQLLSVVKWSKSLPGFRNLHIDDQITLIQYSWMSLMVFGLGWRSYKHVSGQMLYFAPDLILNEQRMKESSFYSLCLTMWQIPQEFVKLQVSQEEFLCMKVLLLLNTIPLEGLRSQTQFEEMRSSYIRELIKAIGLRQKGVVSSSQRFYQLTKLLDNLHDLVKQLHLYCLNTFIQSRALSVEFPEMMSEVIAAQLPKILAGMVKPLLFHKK

Assays:
[1] = target: T1, classical progesterone receptor (PR) (Homo sapiens, UniProt P06401); conditions: cited from earlier work
[2] = target: T1, classical progesterone receptor (PR); conditions: cited from earlier work; remark: listed apart in the source

CC(=O)[C@@H]1CC[C@@H]2[C@H]3CCC4=CC(=O)CC[C@@]4(C)[C@@H]3CC[C@]21C [ent-PROG]
affinity to the classical progesterone receptor (PR) [1]: moderate affinity | activation of PR-mediated gene transcription [2]: does not activate
